{"source": "patent US5100881A", "about": "(priority 1989, dated 1992)", "test_system": "human lung cancer grafted into NUDE (LX1) mice"}
{"compound": "CC[C@]1(O)C[C@@H]2CN(CCc3c([nH]c4ccccc34)[C@@](C(=O)OC)(c3cc4c(cc3OC)N(C)[C@H]3[C@@](O)(C(=O)OC)[C@H](OC(C)=O)[C@]5(CC)C=CCN6CC[C@]43[C@@H]65)C2)C1", "note": "[Vinblastine, vinblastine]", "values": [{"measurement": "T/C (tumor volume treated animals/tumor volume control animals)", "setting": "1 mg/kg i.p. at D0, D3, D6 and D9", "result": 56}, {"measurement": "SGD (Standard Growth Delay)", "setting": "1 mg/kg i.p. at D0, D3, D6 and D9, tumor 5 mm x 5 mm at start", "result": 1.5}, {"measurement": "antitumor activity on LX1 human lung cancer (in words)", "setting": "i.p. at D0, D3, D6 and D9", "result": "very little activity"}]}
